Measured values from PubChem BioAssay AID1511 (Johns Hopkins Ion Channel Center, 2009).
This is a selection; strong and weak results do not stand in their true shares. Calls of active or inactive are those of the source.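 The calls were made as follows: active = activation above the mean of controls blocked by dofetilide plus 5 SD; inactive = the rest.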

Sequences of proteins named here, by UniProt entry; tags and fusion partners are left off. A change or cut given only in a name is not applied to a line headed by its entry.
UniProt Q12809: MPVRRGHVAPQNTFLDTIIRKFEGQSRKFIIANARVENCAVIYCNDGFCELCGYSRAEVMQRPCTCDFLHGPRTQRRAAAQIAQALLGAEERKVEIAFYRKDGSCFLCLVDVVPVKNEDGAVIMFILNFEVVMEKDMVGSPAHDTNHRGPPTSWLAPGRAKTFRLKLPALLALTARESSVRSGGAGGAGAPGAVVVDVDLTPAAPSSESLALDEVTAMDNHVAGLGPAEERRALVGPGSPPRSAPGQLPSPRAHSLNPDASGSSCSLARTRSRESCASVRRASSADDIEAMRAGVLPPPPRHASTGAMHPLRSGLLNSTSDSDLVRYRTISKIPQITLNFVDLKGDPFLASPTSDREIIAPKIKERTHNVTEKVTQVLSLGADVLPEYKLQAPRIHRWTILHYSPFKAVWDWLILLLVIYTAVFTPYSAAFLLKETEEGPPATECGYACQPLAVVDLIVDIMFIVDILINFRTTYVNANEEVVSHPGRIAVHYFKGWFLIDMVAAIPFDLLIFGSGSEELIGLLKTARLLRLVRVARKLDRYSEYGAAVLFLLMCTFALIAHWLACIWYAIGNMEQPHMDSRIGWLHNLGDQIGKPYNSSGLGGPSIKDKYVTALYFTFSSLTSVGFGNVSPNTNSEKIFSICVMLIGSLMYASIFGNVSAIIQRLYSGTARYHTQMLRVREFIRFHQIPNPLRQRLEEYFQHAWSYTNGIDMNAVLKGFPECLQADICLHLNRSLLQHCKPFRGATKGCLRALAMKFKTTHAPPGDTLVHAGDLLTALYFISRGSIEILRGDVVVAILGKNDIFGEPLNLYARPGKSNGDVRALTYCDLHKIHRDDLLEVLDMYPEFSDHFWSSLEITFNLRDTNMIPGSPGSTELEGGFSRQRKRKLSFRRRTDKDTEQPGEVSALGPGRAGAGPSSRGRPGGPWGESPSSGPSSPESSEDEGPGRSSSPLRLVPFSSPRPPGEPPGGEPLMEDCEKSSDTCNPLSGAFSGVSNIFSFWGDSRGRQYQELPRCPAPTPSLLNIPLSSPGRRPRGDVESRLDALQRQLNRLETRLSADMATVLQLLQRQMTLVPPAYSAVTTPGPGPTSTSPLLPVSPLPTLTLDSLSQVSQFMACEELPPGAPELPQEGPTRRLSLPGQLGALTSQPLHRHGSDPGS

target: Voltage-gated inwardly rectifying potassium channel KCNH2 (Homo sapiens) (UniProt Q12809); test: PubChem AID 1511; settings: CHO-hERG, FluxOR thallium flux, dofetilide IC70 present; at 10 µM; hits give high values;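 also: thallium influx through hERG after potassium depolarization seen as dye fluorescence rise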

| Compound | activation (rescue from dofetilide block), less the hit threshold |
| --- | --- |
| O=C(OC1CN2CCC1CC2)c1cccc(Cl)c1 (centres undefined) | inactive: -2.57% |
| C(Cc1nn[nH]n1)Cc1nn[nH]n1 | inactive: -3.25% |
| Nc1ccc([As](=O)(O)c2ccc([N+](=O)[O-])cc2)cc1 | inactive: -1.73% |
| O=[As](O)(c1ccccc1)c1ccc(O)cc1 | inactive: -4.07% |
| O=[N+]([O-])c1ncn(CCn2cnc([N+](=O)[O-])n2)n1 | inactive: -6.83% |
| CC(=O)NC(SC(=S)N(C)C)C(Cl)(Cl)Cl (centres undefined) | inactive: -11.5% |
| O=[N+]([O-])c1ccc(O)c(/C=N/Nc2ccc([N+](=O)[O-])cc2[N+](=O)[O-])c1 | inactive: -2.16% |
| O=P(Nc1nc2ccccc2s1)(c1ccccc1)c1ccccc1 | inactive: -8.94% |
| C[C@H]1OP(=O)(Oc2ccccc2)[C@H](O)[C@H](O)[C@H]1N=[N+]=[N-] (some centres undefined) | inactive: -7.01% |
| CN(C)C1(CNC(=O)c2ccc(Cl)c(S(N)(=O)=O)c2)CCCCC1 | inactive: -1.45% |
| O=P(Nc1ccccn1)(c1ccc(Br)cc1)c1ccc(Br)cc1 | inactive: -10.8% |
| COc1ccc(C[C@H](C)NC[C@@H](O)c2ccc(O)c(NC=O)c2)cc1 | inactive: -8.01% |
| c1nnnn1CCn1cnnn1 | inactive: -5.2% |
| O=P(Nc1nccs1)(c1ccccc1)c1ccccc1 | inactive: -8.34% |
| CC(C)C(=O)NC(Sc1ccccc1)C(Cl)(Cl)Cl (centres undefined) | inactive: -2.13% |
| CC(=O)Nc1ccc([As](=O)(O)O)c(O)c1 | inactive: -11.8% |
| CC(=O)Nc1ccc(Oc2c([N+](=O)[O-])cc([N+](=O)[O-])cc2[N+](=O)[O-])cc1 | inactive: -7.07% |
| C[C@H]1OP(=O)(Oc2ccccc2)C[C@@H]2O[C@@H]21 (some centres undefined) | inactive: -5.72% |
| C[C@@H]1C=CCP(=O)(Oc2ccccc2)O1 (some centres undefined) | inactive: -7.71% |
| CC(=O)c1ccc(N2CC2c2ccncc2)cc1 (centres undefined) | inactive: -6.17% |
| CC(C)(C)C(=O)NC(Sc1ccccc1)C(Cl)(Cl)Cl (centres undefined) | inactive: -18% |
| O=P1(Nc2nc3ccc(Cl)cc3s2)COc2ccccc2O1 (centres undefined) | inactive: -6.35% |
| CCOc1ccc(C2=NCC(CBr)S2)cc1 (centres undefined) | inactive: -22.4% |
| Cc1ccccc1OP(=O)(Nc1ccccn1)Oc1ccccc1C | inactive: -37% |
| CN(C)C(=O)Oc1noc2ccccc12 | inactive: -6.19% |

| Compound | activation (rescue from dofetilide block), less the hit threshold |
| --- | --- |
| O=C(OC1CN2CCC1CC2)c1ccccc1 (centres undefined) | inactive: -7.92% |
| CCC(=O)N1C2C3N(C(=O)CC)C1C1N(C(=O)CC)C(C(N1C(=O)CC)N3C(=O)CC)N2C(=O)CC | inactive: -9.74% |
| COC(=O)c1cc2c(s1)N=C(c1ccccc1)N(C)P2(=O)N1CCOCC1 (centres undefined) | inactive: -5.48% |
| Cc1ccc(OP(=O)(Nc2ccccn2)Oc2ccc(C)cc2)cc1 | inactive: -6.31% |
| CC(=O)NC(SC(=S)N(CC(C)C)CC(C)C)C(Cl)(Cl)Cl (centres undefined) | inactive: -0.95% |
| c1ccc(-c2nn[nH]n2)c(-c2nn[nH]n2)c1 | inactive: -2.79% |
| CCOC(=O)NC(Sc1ccccc1)C(Cl)(Cl)Cl (centres undefined) | inactive: -4.72% |
| Cc1ccc(NP(=O)(Oc2cccc(C)c2)Oc2cccc(C)c2)nc1 | inactive: -10.2% |
| O=C(NC1CCS(=O)(=O)C1)NP(=S)(Oc1ccccc1)Oc1ccccc1 (centres undefined) | inactive: -3.95% |
| CCNC(=S)/N=C(\N)N[N+](=O)[O-] | inactive: -9.67% |
| Nc1cccc2ccc([As](=O)(O)O)cc12 | inactive: -2.28% |
| CCN(N=Nc1nonc1N)c1nonc1N | inactive: -13% |
| O=[N+]([O-])c1cc([N+](=O)[O-])c(CCN2CCOCC2)c([N+](=O)[O-])c1 | inactive: -13.8% |
| Cc1cc(SC(NC(=O)c2ccc(F)cc2)C(Cl)(Cl)Cl)ncn1 (centres undefined) | inactive: -7.21% |
| CCOP(=O)(Nc1ccccc1)OCC | inactive: -4.62% |
| CN(C(=O)Cc1ccc(Cl)c(Cl)c1)[C@H]1CCCC[C@@H]1N1CCCC1 | inactive: -4.79% |
| Cc1ccc(NP(=O)(Oc2ccccc2F)Oc2ccccc2F)nc1 | inactive: -2.3% |
| O=P(Nc1nc2ccc(Cl)cc2s1)(c1ccccc1)c1ccccc1 | inactive: -6.88% |
| CC(=O)Nc1ccc([As](=O)(O)O)cc1 | inactive: -6.5% |
| O=C(O)c1ccccc1[As](=O)(O)O | inactive: -4.82% |
| Oc1ccccc1CNc1ccccn1 | inactive: -4.45% |
| O=C(NC(Sc1ccncn1)C(Cl)(Cl)Cl)c1ccccc1 (centres undefined) | inactive: -12.1% |
| Cc1c2non([O-])c-2c(C)[n+](=O)[n+]1[O-] | inactive: -29.8% |
| Nc1cc(N)c2nonc2c1[N+](=O)[O-] | inactive: -4.06% |
| CC(C)CC(=O)NC(Sc1ccc(Cl)cc1)C(Cl)(Cl)Cl (centres undefined) | inactive: -3.74% |

| Compound | activation (rescue from dofetilide block), less the hit threshold |
| --- | --- |
| CN1CCCC(OC(=O)C(c2ccccc2)c2ccccc2)C1 (centres undefined) | inactive: -7.2% |
| Clc1ccc(Cl)c(NC2=NCC(CBr)S2)c1 (centres undefined) | inactive: -9.66% |
| COc1ccccc1OP(=O)(Nc1ccc(C)cn1)Oc1ccccc1OC | inactive: -8.8% |
| Cc1ccc(OP(=O)(Nc2nccs2)Oc2ccc(C)cc2)cc1 | inactive: -3.1% |
| Cc1ccc(N/C(=N/P(=O)(N2CCOCC2)N2CCOCC2)N2CCOCC2)cc1 | inactive: -17.4% |
| NC(=O)c1cc([N+](=O)[O-])cc([N+](=O)[O-])c1N | inactive: -3.96% |
| CC1CCN(C(=O)Oc2c(Cl)cc(Cl)c3cccnc23)CC1 | inactive: -7.04% |
| CC(C)=N/N=C(\N)N[N+](=O)[O-] | inactive: -4.59% |
| CN(C)C(=O)OCCc1n(C)cc[n+]1C | inactive: -4.12% |
| CCN(/C(=N/P(=O)(N1CCOCC1)N1CCOCC1)N1CCOCC1)c1ccc(OC)cc1 | inactive: -4.84% |
| Nc1ccc([As](=O)(O)c2ccc(N)cc2)cc1 | inactive: -9.51% |
| C[N+]1=C2C=CC=CC=C2SC12C([N+](=O)[O-])=CC([N+](=O)[O-])=C[C-]2[N+](=O)[O-] (centres undefined) | inactive: -6.17% |
| Cc1ccc(NP(=O)(Oc2ccccc2)Oc2ccccc2)nc1 | inactive: -3.78% |
| O=[N+]([O-])c1cc([N+](=O)[O-])c(CCNc2ccccc2)c([N+](=O)[O-])c1 | inactive: -12.1% |
| CCc1nc2c(n1)c1c(non1O)c1c2no[n+]1[O-] | inactive: -33.5% |
| CC(=O)N1C2C3N(C(C)=O)C1C1N(C(C)=O)C(C(N1C(C)=O)N3C(C)=O)N2C(C)=O | inactive: -4.86% |
| O=[N+]([O-])c1cccc2n[nH]nc12 | inactive: -2.54% |
| COc1ccc(C2=NCC(CBr)S2)cc1 (centres undefined) | inactive: -15.4% |
| O=C(O)CNc1ccc([As](=O)(O)O)cc1 | inactive: -8.78% |
| O=[N+]([O-])c1cccc(NC2=NCC(CBr)S2)c1 (centres undefined) | inactive: -5.83% |
| O=[N+]([O-])c1ncn(CCn2ncnc2[N+](=O)[O-])n1 | inactive: -21.4% |
| CC(C)(C)C(=O)NC(Sc1ccncn1)C(Cl)(Cl)Cl (centres undefined) | inactive: -7.62% |
| O=C(Nc1cc([As](=O)(O)O)ccc1O)c1ccccc1 | inactive: -8.7% |
| Cc1cc(SC(NC=O)C(Cl)(Cl)Cl)ncn1 (centres undefined) | inactive: -5.88% |
| O=P(Nc1ccccn1)(c1cccc2ccccc12)c1cccc2ccccc12 | inactive: -2.63% |

| Compound | activation (rescue from dofetilide block), less the hit threshold |
| --- | --- |
| O=[N+]([O-])c1ccc(Nc2ccc(Oc3ccc([N+](=O)[O-])cc3[N+](=O)[O-])cc2)c([N+](=O)[O-])c1 | inactive: -12.5% |
| CCOC(=O)Nc1cccc([As](=O)(O)O)c1 | inactive: -0.66% |
| CCCCOc1ccc(C(=O)NCC2(N3CCCCC3)CCCCC2)cc1OC | inactive: -7.58% |
| Cc1cc(SC(NC(=O)c2ccccc2)C(Cl)(Cl)Cl)nc(C(C)C)n1 (centres undefined) | inactive: -8.95% |
| CCOC(=O)Nc1ccc([As](=O)(O)O)c(O)c1 | inactive: -4.81% |
| CCC(C)N(CC(C)C)C(=S)SC(NC(C)=O)C(Cl)(Cl)Cl (centres undefined) | inactive: -7.34% |
| O=C(OC1CN2CCC1CC2)c1cccc([N+](=O)[O-])c1 (centres undefined) | inactive: -4.22% |
| CCOC(=O)c1ccc(NC(=O)C(C)(CCl)SC)cc1 (centres undefined) | inactive: -4.2% |
| O=C(COc1ccccc1)OC1CN2CCC1CC2 (centres undefined) | inactive: -0.6% |
| O=C(Nc1ccncc1[N+](=O)[O-])c1ccc([N+](=O)[O-])cc1[N+](=O)[O-] | inactive: -9.05% |
| COc1ccc(N/C(=N/P(=O)(N2CCOCC2)N2CCOCC2)N2CCOCC2)cc1 | inactive: -9.08% |
| COc1ccc2nc(NP(=O)(c3ccccc3)c3ccccc3)sc2c1 | inactive: -6.29% |
| COc1cc(I)ccc1[As](=O)(O)O | inactive: -10.5% |
| Cc1c2c(nc3ccccc13)SC(C(Cl)Cl)C2 (centres undefined) | inactive: -5.34% |
| O=C(OC1CN2CCC1CC2)C12CC3CC(CC(C3)C1)C2 (centres undefined) | inactive: -4.48% |
| Cc1cc(=O)[nH]c(N[N+](=O)[O-])n1 | inactive: -12.5% |
| CC(C)NC(=O)NP(=O)(Oc1ccccc1)Oc1ccccc1 | inactive: -4.25% |
| CCN(CC)C(=S)SC(NC=O)C(Cl)(Cl)Cl (centres undefined) | inactive: -20.5% |
| O=[N+]([O-])c1cc([N+](=O)[O-])c(-c2ccn[nH]2)s1 | inactive: -1.07% |
| ClCCSc1nnc(-c2cccnc2)o1 | inactive: -1.5% |
| CC(C)c1ccc(OP(=O)(Nc2ccccn2)Oc2ccccc2F)cc1 (centres undefined) | inactive: -3.42% |
| Cc1ccc(OP(=O)(Nc2ccc([N+](=O)[O-])cn2)Oc2ccc(C)cc2)cc1 | inactive: -12.1% |
| CC(Cc1ccc(O)cc1)NCC(O)c1cc(O)cc(O)c1 (centres undefined) | inactive: -2% |
| Cc1ccc2nc3c(c(C)c2c1)CC(C(Cl)Cl)S3 (centres undefined) | inactive: -9.55% |
